Measured water solubility values of organic chemicals

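The numbers are reported measurements, compiled and curated for the OPERA QSAR suite. One number stands for a compound and property, with no spread given. Method, purity and exact conditions of the single measurements are not given. The measured form (salt, isomer or mixture) is not always the one drawn. Unmarked limits or estimates from the upstream databases cannot be ruled out.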

Water solubility is log10 of mol/L, nominally at 25 °C; higher is more soluble.

Listed for COc1ccc(C2C(=O)c3ccccc3C2=O)cc1 [Anisindione]: log S -4.295 (log10 mol/L).
Listed for c1ccc2c(c1)cc1ccc3cc4ccccc4c4ccc2c1c34 [Dibenzo[a,i]pyrene]: log S -8.74 (log10 mol/L).
Listed for Nc1ncnc2c1ncn2[C@@H]1O[C@H](CO)[C@@H](O)[C@H]1O [Adenosine]: log S -1.729 (log10 mol/L).
Listed for O=c1cnc2[nH]c(=O)[nH]c(=O)c2[nH]1 [2,4,6(3H)-Pteridinetrione, 1,5-dihydro-]: log S -3.125 (log10 mol/L).
Listed for Clc1cc(Cl)cc(Oc2ccc(Cl)c(Cl)c2Cl)c1 [2,3,3',4,5'-Pentachlorodiphenylether]: log S -7.86 (log10 mol/L).
Listed for CCC(Oc1ccc(F)c(C(F)(F)F)c1)C(O)=NCc1ccccc1 (stereo not given) [Beflubutamid]: log S -5.03 (log10 mol/L).
Listed for CCN(CC)c1cccc(NC(C)=O)c1 [Acetamide, N-[3-(diethylamino)phenyl]-]: log S -2.469 (log10 mol/L).
Listed for Cc1cc(N(CCO)CCC#N)ccc1N=Nc1ccc([N+](=O)[O-])cc1: log S -6.722 (log10 mol/L).
Listed for NC(=O)C1OC(=O)c2ccccc21 (stereo not given) [3-Oxo-1,3-dihydro-2-benzofuran-1-carboxamide]: log S -2.134 (log10 mol/L).
Listed for CNc1nc2ncncc2[nH]1 [N-Methyl-7H-purin-8-amine]: log S -1.827 (log10 mol/L).
Listed for CCOc1nc2c(c(=O)n(C)c(=O)n2C)n1C [8-Ethoxycaffeine]: log S -1.9 (log10 mol/L).
Listed for CC(C)OC(=O)CCC(=O)OC(C)C [Dipropan-2-yl butanedioate]: log S -1.729 (log10 mol/L).
Listed for CC(=C(CCO)SSC(CCO)=C(C)N(C=O)Cc1cnc(C)nc1N)N(C=O)Cc1cnc(C)nc1N [Thiamine disulfide]: log S -2.546 (log10 mol/L).
Listed for Cc1cc(=O)n(-c2ccc(S(=O)(=O)O)cc2)[nH]1 [1-(4-Sulfophenyl)-3-methyl-5-pyrazolone]: log S -1.673 (log10 mol/L).
Listed for NNC(=O)c1cccs1 [Thiophene-2-carboxylic acid hydrazide]: log S -0.755 (log10 mol/L).
Listed for CCCCNC(=O)NS(=O)(=O)c1ccc(C)cc1 [Tolbutamide]: log S -3.425 (log10 mol/L).
Listed for CCN(CC)CCNc1ccc(C)c2sc3ccccc3c(=O)c12 [Lucanthone]: log S -5.034 (log10 mol/L).
Listed for CCCC(=O)OCC(O)COC(=O)CCC [1,3-Dibutyrin]: log S -1.822 (log10 mol/L).
Listed for Cc1cc(-c2ccc(/N=N/c3cc(S(=O)(=O)[O-])c4ccccc4c3N)c(C)c2)ccc1/N=N/c1cc(S(=O)(=O)[O-])c2ccccc2c1N.[Na+].[Na+] [C.I. Direct Red 2]: log S -1.559 (log10 mol/L).
Listed for Clc1ccc(Oc2c(Cl)c(Cl)cc(Cl)c2Cl)c(Cl)c1 [2,2',3,4',5,6-Hexachlorodiphenyl ether]: log S -8.42 (log10 mol/L).
Listed for Clc1ccc(Oc2cccc(Cl)c2Cl)cc1Cl: log S -6.9 (log10 mol/L).
Listed for CC(=O)CC(=O)CC(C)C [2,4-Heptanedione, 6-methyl-]: log S -1.6 (log10 mol/L).
Listed for O=C(Nc1ccc(Cl)cc1)c1cc([N+](=O)[O-])ccc1O [Salicylanilide, 4'-chloro-5-nitro-]: log S -5.122 (log10 mol/L).
Listed for O=c1ncc2nccnc2[nH]1 [2-Pteridinol]: log S -1.948 (log10 mol/L).
Listed for O=C(O)[C@H](O)[C@@H](O)CO [Threonate]: log S -0.41 (log10 mol/L).
Listed for CCCCCCCC(=O)NO [Octanamide, N-hydroxy-]: log S -2.012 (log10 mol/L).
Listed for CC(=O)C=C(C)NC1CCCCC1NC(C)=CC(C)=O (stereo not given) [4,4'-(cyclohexane-1,2-diyldiazanediyl)di(pent-3-en-2-one)]: log S -1.699 (log10 mol/L).
Listed for O=C(O)CCCCCCC(C(=O)O)(c1ccccc1)c1ccccc1 [2,2-Diphenylnonanedioic acid]: log S -3.92 (log10 mol/L).
Listed for O=Cc1cc(I)cc(I)c1O [3,5-Diiodosalicylaldehyde]: log S -4.096 (log10 mol/L).
Listed for CC1(C)OC(=O)CC1C(=O)O (stereo not given) [2,2-Dimethyl-5-oxooxolane-3-carboxylic acid]: log S -1.24 (log10 mol/L).
Listed for O=C(O)[C@@H](O)Cc1c[nH]c2ccccc12 [L-Indole-3-lactic acid]: log S -1.082 (log10 mol/L).
Listed for CC(C)(C)S(=O)(=O)C[C@@H](Cc1ccccc1)C(=O)N[C@@H](Cc1cnc[nH]1)C(=O)N[C@@H](CC1CCCCC1)[C@@H](O)[C@@H](O)C1CC1 [Remikiren]: log S -4.472 (log10 mol/L).
Listed for Nc1ccc(S(=O)(=O)Nc2ncc(C(=O)O)s2)cc1: log S -2.874 (log10 mol/L).
Listed for CCCC(CC)(CCC)C(=O)[O-].CCCC(CC)(CCC)C(=O)[O-].CCCC(CC)(CCC)C(=O)[O-].[Cr+3] [Chromium(3+) tris(2-ethyl-2-propylpentanoate)]: log S -6.85 (log10 mol/L).
Listed for C=CC(C)(CCC=C(C)C)OC(C)=O (stereo not given) [Linalyl acetate]: log S -3.816 (log10 mol/L).

From the experimental data distributed with OPERA 2.9.